## Antibody variant affinities, Ab-95 light chain, assay 2

From the AlphaSeq antibody data of Engelhart et al. 2022 (doi:10.1038/s41597-022-01779-4), copy in the FLAb collection.

The target is the same throughout: PDVDLGDISGINAS, from the HR2 region of SARS-CoV-2 spike.

Each scFv is VH, a (GGGGS)3 linker, VL, as in the parent Ab-95, and differs from it in the CDRs of the light chain only.
VH: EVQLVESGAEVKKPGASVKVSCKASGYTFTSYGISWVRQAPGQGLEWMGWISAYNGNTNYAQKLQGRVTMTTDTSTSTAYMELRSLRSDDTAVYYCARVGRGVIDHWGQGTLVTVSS
VL: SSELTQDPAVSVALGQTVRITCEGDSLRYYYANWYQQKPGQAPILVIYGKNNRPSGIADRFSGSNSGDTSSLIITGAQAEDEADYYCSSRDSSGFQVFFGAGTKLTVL

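The parent was found by panning a naive human phage display library on the peptide. In library AAYL52, one, two or three CDR residues were substituted; doubles and triples were drawn at random. AlphaSeq pools MATa yeast showing the antibodies with MATalpha yeast showing the peptide. Binding brings cells together so that they mate, and sequencing counts the barcode pairs among the diploids. The ratio of observed to expected reads was calibrated, replicate by replicate, on BCL2-family standards whose Kd was known from biolayer interferometry. The assay was run in three technical replicates.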

Substitutions are numbered in sequence along the VL above, starting at 1 (not Kabat). This list gathers variants with a substitution at G24 (VL, numbered from residue 1). Numbers give log10(Kd / nM), so 0 is 1 nM and 3 is 1 µM. Smaller is tighter. A mean of the replicates is given; it leaves out those without a signal. "no signal" means that the variant was in the library but no mating with the target was seen in any replicate; the authors take this as a sign of poor binding, and no number exists. For reference, the parent read 2.31 as the reference entry and 2.25 as a member of this library. Three control strains display no target. For library AAYL52, 28% of the pairings with them gave a signal, with a median of 3.91 and one signal in twenty below 2.90, so weak values seen in few replicates may be background.

G24N+L27I+F98T: 3.74 (2 of 3 replicates).
G24T: 3.29 (3 of 3 replicates).
G24N+R28W+N33Y: no signal (0 of 3 replicates).
G24V+N51C+F95N: 4.31 (1 of 3 replicates).
G24K+L27D+Y30F: 3.02 (3 of 3 replicates).
G24E+D25E+R90I: 4.57 (1 of 3 replicates).
G24S+R53N+S93P: 4.75 (1 of 3 replicates).
G24R+A32S+G49V: 2.91 (1 of 3 replicates).
G24A+A32R+S88D: 4.22 (1 of 3 replicates).
G24T+S55H+S92K: 3.16 (3 of 3 replicates).
G24F+R28K+G94I: 3.52 (3 of 3 replicates).
G24H+N33I: 4.83 (1 of 3 replicates).
G24A+Y30R+S92N: 1.70 (3 of 3 replicates).
G24I+Q96P+F98R: 3.54 (2 of 3 replicates).
G24R+S26I+G49A: 4.88 (2 of 3 replicates).
G24N+N51C: no signal (0 of 3 replicates).
G24L+L27G+Y31R: 4.12 (2 of 3 replicates).
G24K+N51M+S55F: no signal (0 of 3 replicates).
G24L+Y30M+N52D: 2.84 (3 of 3 replicates).
G24S+S26I+L27Q: 2.89 (3 of 3 replicates).
G24M+D25R+V97N: 4.59 (1 of 3 replicates).
G24E+R53K+S92M: no signal (0 of 3 replicates).
G24C+R28D+S89K: 2.73 (3 of 3 replicates).
G24C+N51R: 4.60 (1 of 3 replicates).
G24Y+A32I+G49Y: 5.23 (1 of 3 replicates).
G24V+N33F+R53F: 4.64 (1 of 3 replicates).
G24W+N51H+S88W: 4.27 (2 of 3 replicates).
G24K+R90A+V97Y: no signal (0 of 3 replicates).
G24A+N51Q: 3.59 (1 of 3 replicates).
G24I+N33D+Q96C: 5.66 (2 of 3 replicates).
G24K+A32I+S55L: 4.14 (1 of 3 replicates).
G24V+A32F+S55F: 4.10 (2 of 3 replicates).
G24L+D91W+S92D: no signal (0 of 3 replicates).
G24I+Y30N+S89V: 2.04 (3 of 3 replicates).
G24V+S26F+S88G: no signal (0 of 3 replicates).
G24W+S89H+V97S: 3.66 (1 of 3 replicates).
G24A+R28F+P54F: 4.64 (1 of 3 replicates).
G24F+A32T: 2.68 (3 of 3 replicates).
G24L+D25A+A32M: 3.53 (2 of 3 replicates).

A selection of 5 entries from above:

| changes | mean, log10 nM | seen in |
|---|---|---|
| G24C+N51R | 4.60 | 1 of 3 |
| G24V+N33F+R53F | 4.64 | 1 of 3 |
| G24F+A32T | 2.68 | 3 of 3 |
| G24K+N51M+S55F | no signal | 0 of 3 |
| G24L+D91W+S92D | no signal | 0 of 3 |